Target: T1, GABA-ρ1 receptors (Homo sapiens, UniProt P24046)
T1 construct: expressed in transfected cells; host or cells: Xenopus laevis oocytes injected with cRNA
Test: Two-electrode voltage-clamp, co-application of ligand with GABA EC50 at GABA-ρ1 receptors (additive/inhibition)
Type: cell-based
Conditions: co-application curve with GABA EC50
Protocol: The activity of receptors was tested by recording whole cell currents using the two-electrode voltage clamp technique as previously reported. In brief, fabricated microelectrodes prepared with a micropipette puller (Sutter instruments, Novato, CA, USA), were filled with 3 M KCl solution (0.3–2.3 MΩ). Oocytes were immersed with ND96 buffer in the cell chamber at approximately 5 mL/min rate. The microelectrode impaled cells were clamped at −60 mV (voltage), and the currents elicited in response to the application of ligand/s was recorded using a Power Lab 2/25 analogue–digital data acquisition system (AD Instruments, Sydney, NSW, Australia), a Geneclamp 500 B amplifier (Axon Instrument, Foster City, CA, USA), and Lab Chart version 5.0.2 program (ADInstruments, Sydney, Australia).
Ligands were applied into the perfusate until a peak response (maximal) was reached. All stock solutions of the ligands were freshly made on the day of experiments. Solutions of ligands dissolved in DMSO were standardized to contain less than 0.8% DMSO in the final perfusate solution to prevent any alteration in the recordings. Perfusates containing these ligands (chemicals) were freshly prepared before each application. The dose–response curves of ligands were obtained by increasing the concentrations of applied agonists on oocytes until the maximum current reached. […]

The chains behind the UniProt entries cited, without tags or fusion partners. Residues count along the entry.
UniProt P24046, 22-479: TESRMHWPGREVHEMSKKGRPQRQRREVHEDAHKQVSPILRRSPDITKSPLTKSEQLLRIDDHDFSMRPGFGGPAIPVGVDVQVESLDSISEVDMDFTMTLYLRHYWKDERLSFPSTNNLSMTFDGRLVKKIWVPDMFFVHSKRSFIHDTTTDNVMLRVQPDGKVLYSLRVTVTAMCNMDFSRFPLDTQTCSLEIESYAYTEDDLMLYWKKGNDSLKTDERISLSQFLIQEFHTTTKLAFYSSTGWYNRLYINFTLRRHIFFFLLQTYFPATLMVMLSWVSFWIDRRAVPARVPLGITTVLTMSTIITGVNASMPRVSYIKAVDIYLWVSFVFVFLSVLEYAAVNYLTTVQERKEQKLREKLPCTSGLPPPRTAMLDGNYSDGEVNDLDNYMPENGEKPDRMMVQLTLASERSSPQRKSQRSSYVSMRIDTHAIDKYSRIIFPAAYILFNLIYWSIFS

NCC(=O)O [Glycine, glycine]
GABA-ρ1 Additive/Inhibition Hill slope: 1.23 ± 0.42

Reference: PMC8780768 (Life, 2022)
